Measurements as given in patent US20010010822A1, “LIPID COMPLEXES AND LIPOSOMES OF HIGHLY INSOLUBLE PLATINUM COMPLEXES” (priority 1999, published 2001).

Assay: Solubility in water (statement in reaction scheme description)

diaminocyclohexane-platinum iodide [diaminocyclohexane-platinum iodide (4)]
solubility in water: only slightly soluble in water
